# High-throughput results deposited in PubChem by National Center for Advancing Translational Sciences (NCATS).
# TDP1 cell CPT – DT40-hTDP1 cell growth loss with CPT. 12% of 420,000 active. chicken DT40 Tdp1-/-;hTDP1 cells + 20 nM CPT, ATP luminescence, 48 h. Potency, µM (titrated, usually from 46.2 µM), for inactives: at the top dose activity change, negative = growth inhibition, hits mostly inhibitors; note: potency is the fitted concentration of half-maximal effect; % is set by controls: 0 for no effect and ±100 for the full control effect; nearly all actives have a fitted effect of over 55% in size
#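 Chicken DT40 Tdp1-/- cells complemented with human TDP1, 400 cells/well, exposed to compounds plus 20 nM camptothecin for at least 48 h at 37 C; viability read as ATP content by CellTiter-Glo luminescence.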
# TDP1 cell noCPT – qHTS for Inhibitors of human tyrosyl-DNA phosphodiesterase 1 (TDP1): qHTS in cells in absence of CPT; AID 686978, 2013; Potency, µM (highest dose often 46.2 µM), inactives show top-dose activity change, negative = growth inhibition, usual class: inhibitors; DT40 Tdp1-/- hTDP1 cells, no CPT, ATP luminescence, 48 h; 15% of 420,000 active; note: potency is the fitted concentration of half-maximal effect; % is set by controls: 0 for no effect and ±100 for the full control effect; nearly all actives have a fitted effect of over 55% in size
#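 Stably hTDP1-transfected Tdp1-null chicken DT40 cells were treated with library compounds minus camptothecin and grown for at least 48 hr at 37 °C, after which cellular ATP was quantified by luminescence.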
# TDP1 block – blocks human tyrosyl-DNA phosphodiesterase 1; Q9NUW8; recombinant TDP1, AlphaScreen DNA substrate cleavage; Potency, µM (doses to about 130 µM), without a hit: at the top dose activity change, negative = inhibition, hits mostly inhibitors; 0.28% of 350,000 active; note: potency is the fitted concentration of half-maximal effect; % is set by controls: 0 for no effect and ±100 for the full control effect; nearly all actives have a fitted effect of over 40% in size
#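 E. coli-derived human Tdp1, 1 nM final. Cpd preinc 15 min RT; substrate 15 nM final, 5 min RT; AS bead mix 10 ug/ml final, 10 min RT. Signal loss = tyrosine-FITC cleavage. No-enzyme wells = max signal.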
# miR-21 reporter – miR-21 reporter, rising signal | HeLa miR-21 FLuc reporter, luciferase, 48 h | Potency, µM (doses to about 38.3 µM), inactives show at the top dose reporter change, positive = more light | 340,000 tested, under 10 active | AID 2288; active = well fitted rising curve with a large enough effect; inconclusive = small, poorly fitted or top-dose-only effect; inactive = no such curve, though single readings can be large or run the other way;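 note: % of control where 0% means no effect; miR-21 action dims this reporter so a rising signal means less miR-21 action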
#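 Compounds were titrated across several concentrations (up to approximately 40 uM) and incubated 48 hours with HeLa miR-21-FLuc reporter cells (miR-21 target sequence downstream of FLuc, endogenous miR-21). Readout was firefly luciferase luminescence after lytic detection reagent.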
# uPA surface inh – inhibitors of cell surface uPA generation; cell surface uPA generation assay, qHTS; AID 540303; Potency, µM (titrated, usually from 38.3 µM), for the others: top-dose activity change, negative = inhibition, most hits filed as inhibitors; 0.31% of 330,000 active; active = well fitted inhibition curve with a large enough effect; inconclusive = small, poorly fitted or top-dose-only effect; inactive = no such curve, though single readings can be large or run the other way; tested in mouse RAW 264.7 cells; note: potency is the fitted concentration of half-maximal effect; % is set by controls: 0 for no effect and ±100 for the full control effect; nearly all actives have a fitted effect of over 55% in size
# * = called active by the depositor; ? = inconclusive; . = no result given. Hits are enriched below; roughly 16% of the tested compounds scored in any of these assays. Unless noted, calls come from the whole dose curve; as a rule, active = well fitted curve in the direction sought with a large enough effect; inconclusive = small, poorly fitted or top-dose-only effect, or another doubt; inactive = no such curve, though single readings can be large; an effect the other way counts as inactive or inconclusive.
# Preview:
cpd | mol | TDP1 cell CPT | uPA surface inh | miR-21 reporter | TDP1 block | TDP1 cell noCPT
1 | COc1cccc(-c2nc(CS(=O)(=O)CC(=O)NCCC(C)C)c(C)o2)c1 | ? | 4.4% | -4.0% | 2.6% | -27.1%
2 | COc1ccc(OC)c(CCNC(=O)CS(=O)(=O)Cc2nc(-c3cccc(Cl)c3)oc2C)c1 | ? | . | -1.8% | 6.4% | ?
3 | COc1ccc(OC)c(CCNC(=O)CS(=O)(=O)Cc2nc(-c3ccc(C)cc3)oc2C)c1 | ? | 0.5% | 0.7% | 8.6% | ?

# The list itself, repeating the preview:
cpd | mol | TDP1 cell CPT | uPA surface inh | miR-21 reporter | TDP1 block | TDP1 cell noCPT
1 | COc1cccc(-c2nc(CS(=O)(=O)CC(=O)NCCC(C)C)c(C)o2)c1 | ? | 4.4% | -4.0% | 2.6% | -27.1%
2 | COc1ccc(OC)c(CCNC(=O)CS(=O)(=O)Cc2nc(-c3cccc(Cl)c3)oc2C)c1 | ? | . | -1.8% | 6.4% | ?
3 | COc1ccc(OC)c(CCNC(=O)CS(=O)(=O)Cc2nc(-c3ccc(C)cc3)oc2C)c1 | ? | 0.5% | 0.7% | 8.6% | ?
4 | COc1ccc(-c2nc(CS(=O)(=O)CC(=O)NCCc3cc(OC)ccc3OC)c(C)o2)cc1 | ? | . | -0.1% | 6.7% | 23.1µM*
5 | COc1cccc(-c2nc(CS(=O)(=O)CC(=O)NCCc3cc(OC)ccc3OC)c(C)o2)c1 | -22.2% | 0.3% | 1.6% | 5.9% | 18.4µM*
6 | COc1ccc(CC(=O)Nc2ccc(-c3noc(-c4ccc(Cl)cc4)n3)cc2)cc1 | 5.17µM* | . | -3.7% | 5.2% | ?
7 | COc1cccc(-c2nc(CS(=O)(=O)CC(=O)NCCc3ccc(OC)cc3OC)c(C)o2)c1 | 18.4µM* | 3.0% | -5.7% | 5.0% | 23.1µM*
8 | Cc1cc(C)n2nc(SCC(=O)N(C)C)nc2n1 | 0.8% | -6.5% | -1.1% | 1.0% | -1.5%
9 | COc1ccc(C2=C(C)C(=NCc3ccc(OC(C)C)cc3)NS2(=O)=O)cc1 | ? | . | -9.0% | 2.9% | ?
10 | COc1ccc(-c2nc(CS(=O)(=O)CC(=O)Nc3ccc(Cl)cc3)c(C)o2)cc1 | 10.3µM* | -10.9% | -14.6% | -4.3% | 20.6µM*
11 | COc1ccc(NC(=O)CS(=O)(=O)Cc2nc(-c3ccc(C)cc3)oc2C)cc1 | -18.3% | 0.1% | -0.7% | 1.8% | -2.4%
12 | O=Cc1ccc(/C=C2/C=Cc3ccccc32)cc1 | ? | . | . | . | -18.1%

# Values by screen from the entries so far:
# Nos. 4–10 in TDP1 block: 6.7%, 5.9%, 5.2%, 5.0%, 1.0%, 2.9%, -4.3%
# Nos. 4–10 in TDP1 cell noCPT: 23.1µM*, 18.4µM*, ?, 23.1µM*, -1.5%, ?, 20.6µM*

# (cont.)
cpd | mol | TDP1 cell CPT | uPA surface inh | miR-21 reporter | TDP1 block | TDP1 cell noCPT
13 | Cc1ccc(Nc2ccc([N+](=O)[O-])ccc2=O)cc1 | 8.9% | 0.8% | . | . | 0.5%
14 | Cc1nsc(Nc2ccc([N+](=O)[O-])cc2)c1C#N | 2.59µM* | -6.9% | 0.2% | 6.0% | 2.31µM*
15 | COc1ccc(C(=O)/C=C/c2ccsc2)cc1CSCC(=O)O | 9.2µM* | -4.9% | -5.4% | -18.7% | 11.6µM*
16 | Nc1nc(N)nc(-c2cc([N+](=O)[O-])ccc2O)n1 | -13.1% | -6.3% | . | 56.2µM* | -22.5%
17 | Nc1nc(N)nc(-c2cc(O)ccc2O)n1 | 8.2µM* | 2.8% | . | -0.8% | 5.8µM*
18 | O=[N+]([O-])c1ccc(O)c(-c2cc(C(F)(F)F)nc(-c3ccccc3)n2)c1 | 0.581µM* | ? | ? | . | 0.651µM*
19 | COc1ccc(N2CCN(C(=O)c3cc(-c4ccc(C)c(F)c4)on3)CC2)cc1 | -3.8% | . | -2.3% | -2.9% | 0.4%
20 | COC(=O)c1ccc(-c2ccc(OC)c([C@H]3[C@H]4C=CC[C@@H](C)[C@@H]4C(=O)N3Cc3ccccc3)c2)cc1 | 5.8µM* | 8.4% | -5.0% | 1.2% | 6.51µM*
21 | COc1ccc(-c2ccc(C(C)=O)cc2)cc1[C@H]1[C@H]2C=CC[C@@H](C)[C@@H]2C(=O)N1Cc1ccccc1 | 23.1µM* | ? | 0.4% | 4.7% | 16.4µM*
22 | O=C(NCCN1C(=O)S/C(=C\c2cccnc2)C1=O)c1cc(S(=O)(=O)N2CCOCC2)ccc1F | ? | -6.8% | 8.5% | 5.6% | 18.4µM*
23 | Cc1ccc(S(=O)(=O)N2CCOCC2)cc1C(=O)NCCN1C(=O)S/C(=C\c2ccccc2Cl)C1=O | ? | -6.8% | 2.7% | 4.7% | ?
24 | CC(C)(C)c1ccc(/C=C2\SC(=O)N(CCNC(=O)c3cccc(S(=O)(=O)N4CCOCC4)c3)C2=O)cc1 | 8.2µM* | -10.1% | 13.3% | 3.4% | 23.1µM*
25 | Cc1cccc(C)c1NC(=O)C(c1ccccc1)N1CCN(C(=O)c2ccco2)CC1 (stereo not drawn) | -36.2% | -3.8% | -7.3% | 5.3% | -3.4%
26 | COc1cc(COc2ccc(S(=O)(=O)N3CCOCC3)cc2[N+](=O)[O-])ccc1OC(F)F | 18.4µM* | -8.6% | . | . | ?
27 | CCCCCCc1ccc(N2C[C@H](Cc3ccccc3)[C@@H](CC(=O)NCc3ccc(OC)cc3)C2=O)cc1 | 12.6µM* | 7.7% | 0.7% | . | 12.6µM*
